Results from PubChem BioAssay AID540277 (National Center for Advancing Translational Sciences (NCATS), 2011).
Some of the results follow. Inconclusive results are not listed. Some salts or complexes appear as unconnected parts, following the source record. Calls of active or inactive are those of the source. Cut-off read from the data, not from the text of the source: active = potentiation above about 80%; inconclusive = between about 30% and that limit; inactive = weaker than that.

Sequences of proteins named here, by UniProt entry; tags and fusion partners are left off.
UniProt Q8NER1, whole entry: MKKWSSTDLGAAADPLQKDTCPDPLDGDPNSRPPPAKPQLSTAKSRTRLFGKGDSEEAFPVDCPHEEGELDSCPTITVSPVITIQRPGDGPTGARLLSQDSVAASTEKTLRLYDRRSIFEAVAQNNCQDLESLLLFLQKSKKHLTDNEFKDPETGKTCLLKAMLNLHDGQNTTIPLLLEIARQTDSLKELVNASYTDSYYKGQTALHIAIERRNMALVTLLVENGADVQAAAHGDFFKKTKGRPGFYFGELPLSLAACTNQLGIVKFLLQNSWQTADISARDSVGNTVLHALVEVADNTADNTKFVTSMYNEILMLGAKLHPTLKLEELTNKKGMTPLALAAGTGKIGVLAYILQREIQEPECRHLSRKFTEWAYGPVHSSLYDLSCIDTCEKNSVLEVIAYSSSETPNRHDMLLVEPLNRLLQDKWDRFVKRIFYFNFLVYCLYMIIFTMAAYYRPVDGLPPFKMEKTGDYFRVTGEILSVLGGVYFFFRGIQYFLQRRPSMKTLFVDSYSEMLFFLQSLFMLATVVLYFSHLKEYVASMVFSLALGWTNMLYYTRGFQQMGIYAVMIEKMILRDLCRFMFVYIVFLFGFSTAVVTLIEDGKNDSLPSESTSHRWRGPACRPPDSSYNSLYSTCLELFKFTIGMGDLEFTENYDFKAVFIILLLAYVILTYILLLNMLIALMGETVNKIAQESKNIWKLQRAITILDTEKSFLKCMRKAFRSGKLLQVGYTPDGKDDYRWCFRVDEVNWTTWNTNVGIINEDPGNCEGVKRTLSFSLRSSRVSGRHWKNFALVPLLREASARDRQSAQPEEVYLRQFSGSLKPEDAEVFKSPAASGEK

These molecules were tested against Transient receptor potential cation channel subfamily V member 1 (Homo sapiens) (UniProt Q8NER1) (assay: HTS Assay for Compounds that Act as Potentiators of the Vanilloid Receptor 1). Settings: TRPV1-expressing cells, Fluo-8 calcium influx, capsaicin EC20 potentiation; at 8.33 µM, hits give high values.
From the text: The transient receptor potential ion channel, family V, number 1, (TRPV1) is one of the most important molecular transducers of painful stimuli and a potential target for analgesic drug development. Although recent clinical trials with orthosteric antagonists have not produced a successful drug because of a hyperthermia side effect and their tendency to block thermal noxious pain, this ion channel is undeniably well placed in the pain pathway, and the idea of blocking pain signals before they enter the CNS is an excellent concept and of proven efficacy when TRPV1 agonists are used. We propose a new approach involving allosteric modulation to impose an activity-dependent constraint within the context of inflammation and tissue damage that would alter the responsiveness of the channel in a way that an orthosteric vanilloid antagonist cannot achieve. We believe that the allosteric modulator approach has not been explored for this target. The main goal of this proposal is to identify additional, new, potent allosteric modulators of TRPV1 that can be used to investigate TRPV1 function. Our recent report provides evidence of proof of concept, but the compounds are just at the edge of utility in terms of potency. […] The question of whether they can be used as analgesic agents is complex, but if suitable compounds are identified then testing for analgesic properties will be conducted. NIH Chemical Genomics Center [NCGC] NIH Molecular Libraries Probe Centers Network [MLPCN] MLPCN Grant: MH089480-1A1 Assay Submitter (PI): Michael Iadarola, National Institute of Dental and Cranofacial Research
Upon TRPV1 activation in TRPV1 cells, the channel opens and extracellular cations flow through the channel into the cytosol. A calcium binding dye (Fluo-8) becomes fluorescent when bound to calcium. This dye is pre-loaded into cells and is used as a marker for calcium influx. The amount of accumulated calcium is precisely quantified using the FDSS kinetic reader and the calcium dye. For the HTS assay, freshly prepared cells are plated at a density of 2000/well in 3 ul medium in 1536-well plates and cultured overnight at 35.5C. Cells will be loaded with 1 ul of the homogeneous calcium dye (ABD Bioquest) at room temperature for 40 to 90 minutes. Plates will be loaded into the FDSS kinetic reader and a 1 sec / cycle for 10 second baseline signal will be measured. Compound library will then be added with a pintool at 23 nl and measured kinetically for 3 minutes. This portion of the read is considered the agonist portion of the screen. Following the 3 minutes of incubation, an on board pipettor will deliver 1 ul of capsaicin for a final concentration equal to the EC20. Signal will be measured kinetically for an additional 2 minutes. This portion of the read is considered the allosteric enhancer portion of the screen. The FDSS reader has a standard filter set capable of measuring calcium bound Fluo-8 (ex=480 and em=520 nm).
Throughout, for potentiation: 0% is about no effect.

Structure (SMILES)	potentiation
Cc1ccc(OCC(C)C)c(CN(CCCl)CCCl)c1	inactive: -11.5%
CCOC(=O)N1CCC(Nc2cccc(C)c2)CC1	inactive: -8.37%
COc1cc(C(=O)NCC2(N(C)C)CCCCC2)ccc1OC(F)F	inactive: 3.53%
CCOC(=O)N1CCC(Nc2ccc(F)cc2)CC1	inactive: -19.3%
COc1ccc(NC2CCN(CCc3ccccc3)CC2)c(OC)c1	inactive: 7.7%
CCCCOc1ccc(C(=O)NCC2(N3CCOCC3)CCCCC2)cc1	inactive: -13.4%
O=C(NCC1(N2CCCCC2)CCCCC1)c1ccc(F)cc1	inactive: -13.5%
CCOc1ccc(C)cc1CN(CCCl)CCCl	inactive: -8.39%
COc1ccc(Cl)cc1C(=O)NCC1(N2CCOCC2)CCCCC1	inactive: -16.7%
O=C(NCC1(N2CCCCC2)CCCCC1)c1ccc(Cl)s1	inactive: -11.7%
N#CC1(Nc2ccccc2)CCN(Cc2ccccc2)CC1	inactive: -8.24%
O=C(OC1CN2CCC1CC2)C1c2ccccc2Oc2ccccc21 (stereo not given)	inactive: -7.51%
CCOC(=O)N1CCC(Nc2ccc(OC)cc2)CC1	inactive: -4.16%
Cc1cc(C)cc(N(C(=O)c2ccccc2)C2CCN(C(=O)OC(C)(C)C)CC2)c1	inactive: -21.9%
O=C(NCC1(N2CCCCC2)CCCCC1)c1ccc(Cl)nc1	inactive: -6.41%
O=C(NCC1(N2CCOCC2)CCCCC1)c1cc2ccccc2o1	inactive: 17.2%
CSc1ccccc1C(=O)NCC1(N2CCCCC2)CCCCC1	inactive: -6.98%
CC(C)(C)OC(=O)N1CCC(N(C(=O)c2ccccc2)c2ccc(F)cc2)CC1	inactive: -25.7%
COc1ccc(C(=O)NCC2(N3CCCCC3)CCCCC2)c(OC)c1OC	inactive: 1.84%
COc1ccc(C(=O)NCC2(N3CCCCC3)CCCCC2)cc1	inactive: -6.7%
O=C(NCC1(N2CCCCC2)CCCCC1)c1cccs1	inactive: -9.85%
O=C(NCC1(N2CCCCC2)CCCCC1)c1ccc(=O)[nH]c1	inactive: -4.14%
CCCOc1ccc(C(=O)NCC2(N(C)C)CCCCC2)cc1OC	inactive: -1.35%
COc1ccc2c(c1O)-c1c(O)c(OC)cc3c1[C@H](C2)[N+](C)(C)CC3.O=[N+]([O-])c1cc([N+](=O)[O-])c([O-])c([N+](=O)[O-])c1[O-]	inactive: -13.3%

Structure (SMILES)	potentiation
O=C(NCC1(N2CCCCC2)CCCCC1)c1cncc(Br)c1	inactive: -5.66%
COc1cc(OC)c(C(=O)NCC2(N(C)C)CCCCC2)cc1OC	inactive: 1.68%
CC(C)c1ccc(NC2CCN(C(=O)OC(C)(C)C)CC2)cc1	inactive: -32.6%
CN(C)c1cccc(C(=O)NCC2(N3CCCCC3)CCCCC2)c1	inactive: -0.888%
O=[N+]([O-])c1cc([N+](=O)[O-])c(OC2CCCCC2O)c([N+](=O)[O-])c1 (stereo not given)	inactive: 0.976%
COc1ccc(CN(CCCl)CCCl)cc1Cl	inactive: 8.86%
O=C(NCC1(N2CCOCC2)CCCCC1)c1cc(=O)[nH]c2ccccc12	inactive: 3.59%
COc1cc(C(=O)NCC2(N3CCCCC3)CCCCC2)ccc1OC(F)F	inactive: 7.41%
CC(C)c1ccc(C(=O)NCC2(N3CCOCC3)CCCCC2)cc1	inactive: 6.58%
COc1ccc(NC2CCN(C(=O)OC(C)(C)C)CC2)cc1	inactive: -3.76%
CN1CCN(CCOC(=O)C(O)(c2ccccc2)c2ccccc2)CC1	inactive: -5.29%
O=[N+]([O-])c1cc([N+](=O)[O-])c(NCC2CCS(=O)(=O)C2)c([N+](=O)[O-])c1 (stereo not given)	inactive: 13.5%
O=C(NCC1(N2CCCCC2)CCCCC1)c1cccc(C(F)(F)F)c1	inactive: -4.17%
N#CC1(Nc2ccccc2)CCN(CCc2ccccc2)CC1	inactive: 4.8%
CCN1CCC(Nc2ccc(Cl)cc2)CC1	inactive: -7.2%
O=C(NCC1(N2CCCCC2)CCCCC1)c1cccc([N+](=O)[O-])c1	inactive: 3.83%
CSc1ccc(C(=O)NCC2(N3CCOCC3)CCCCC2)cc1	inactive: -6.56%
O=C(NCC1(N2CCCCC2)CCCCC1)c1ccc(OC(F)F)cc1	inactive: 3.68%
CN(C)C1(CNC(=O)c2cccc(C#N)c2)CCCCC1	inactive: -24.9%
CCCN1CCC(Nc2cc(OC)cc(OC)c2)CC1	inactive: 3.35%
c1ccc(CN2CCC(Nc3ccccc3)CC2)cc1	inactive: 10%
CCOC(=O)C(CC)C1=NC(C)(C)Cc2ccccc21.O=[N+]([O-])c1cc([N+](=O)[O-])c(O)c([N+](=O)[O-])c1 (stereo not given)	inactive: 5.05%
N#Cc1ccc(C(=O)NCC2(N3CCCCC3)CCCCC2)cc1	inactive: -0.335%
CC(C)(C)OC(=O)N1CCC(N(C(=O)c2ccccc2)c2ccc(Cl)cc2)CC1	inactive: -19.3%

Structure (SMILES)	potentiation
O=C(O)c1cccc(Nc2c([N+](=O)[O-])cc([N+](=O)[O-])cc2[N+](=O)[O-])c1	inactive: -5.95%
CCc1cc(C(=O)NCC2(N3CCCCC3)CCCCC2)sc1C	inactive: 11.1%
O=C(OC1CN2CCC1CC2)C1c2ccccc2C=Cc2ccccc21 (stereo not given)	inactive: 0.177%
CCOC(=O)N1CCC(Nc2ccc(C)cc2)CC1	inactive: -37.6%
N/C(=N\O)c1c(N)no[n+]1[O-]	inactive: -2.42%
COc1ccc(C(=O)NCC2(N3CCOCC3)CCCCC2)cc1OC	active
O=C(NCC1(N2CCOCC2)CCCCC1)c1cc(Br)ccc1Cl	inactive: -22%
CN1CCC(Nc2ccc(Cl)cc2)CC1	inactive: -3.11%
CCCOc1ccc(C)cc1CN(CCCl)CCCl	inactive: 19.4%
COc1cccc(C(=O)N(c2cc(C)cc(C)c2)C2CCN(C(=O)OC(C)(C)C)CC2)c1	inactive: 25.2%
COc1cc(OC)cc(C(=O)NCC2(N3CCOCC3)CCCCC2)c1	inactive: -6.95%
CCC(CO)(C(=O)OC1CN2CCC1CC2)c1ccccc1 (stereo not given)	inactive: -6.22%
O=C(O)C1(Nc2ccccc2)CCN(Cc2ccccc2)CC1	inactive: -1.13%
CC(C)(C)OC(=O)N1CCC(Nc2ccccc2)CC1	inactive: -17%
CCCOc1ccc(C(=O)NCC2(N(C)C)CCCCC2)cc1	inactive: -3.58%
CN1CCC(Nc2ccc(F)c(Cl)c2)CC1	inactive: -16.3%
CCOc1ncccc1C(=O)NCC1(N2CCOCC2)CCCCC1	inactive: -6.93%
CN(C)c1ccc(C(=O)NCC2(N3CCCCC3)CCCCC2)cc1	inactive: -1.38%
O=C(NCC1(N2CCCCC2)CCCCC1)c1ccco1	inactive: 6.84%
CCN1CCC(Nc2cccc(F)c2)CC1	inactive: 9.02%
Fc1ccccc1NC1CCN(Cc2ccccc2)CC1	inactive: 0.931%
COc1cc(OC)cc(C(=O)NCC2(N3CCCCC3)CCCCC2)c1	inactive: 22.7%
